Protein sequences, listed by entry. Tags and fused reporters are not part of them.
UniProt Q9NUW8, whole entry: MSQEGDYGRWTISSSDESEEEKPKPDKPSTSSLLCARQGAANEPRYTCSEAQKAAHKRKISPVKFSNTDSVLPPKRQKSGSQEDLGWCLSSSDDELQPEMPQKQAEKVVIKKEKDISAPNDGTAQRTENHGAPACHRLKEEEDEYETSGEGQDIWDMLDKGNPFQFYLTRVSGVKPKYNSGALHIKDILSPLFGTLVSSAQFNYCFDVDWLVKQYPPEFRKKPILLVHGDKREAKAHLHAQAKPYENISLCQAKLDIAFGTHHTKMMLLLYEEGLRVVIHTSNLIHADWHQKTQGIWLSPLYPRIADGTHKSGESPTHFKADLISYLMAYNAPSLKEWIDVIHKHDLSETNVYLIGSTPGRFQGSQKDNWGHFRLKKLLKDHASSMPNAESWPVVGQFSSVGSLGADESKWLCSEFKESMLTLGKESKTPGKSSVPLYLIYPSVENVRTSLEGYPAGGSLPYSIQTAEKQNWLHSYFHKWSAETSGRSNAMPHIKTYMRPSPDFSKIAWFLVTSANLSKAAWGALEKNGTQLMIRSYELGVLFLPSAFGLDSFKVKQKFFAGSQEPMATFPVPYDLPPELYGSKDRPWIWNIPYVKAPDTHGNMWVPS

In patent publication US20250011330A1, “Imidazo[1,2- a]pyrazine and Imidazo[1,2- a]pyridine Based Tyrosyl-DNA Phosphodiesterase I (TDP1) Inhibitors” (The USA, As Represented by the Secretary, Department of …, priority 2021, published 2025):

Tests used:
[1] = target: T1, TDP1 (Homo sapiens (Human), UniProt Q9NUW8); test: TDP1 gel-based in vitro fluorescence assay; type: biochemical; settings: for IC50: Table 8, lead compounds with different linkers; for FC (fold change): Table 8, ratio of IC50 TDP2 to TDP1
Experimental: (TDP assay buffer: 50 mM Tris HCl, pH 7.5, 80 mM KCl, 2 mM EDTA, 1 mM DTT, 40 μg/ml BSA and 0.01% Tween-20. TDP1 (20 mg/mL in 25 mM Tris-HCl pH 7.2, 150 mM NaCl, 2 mM tris(2-carboxyethyl)phosphine) with 2 mL of well solution composed of 0.1 M MOPS/HEPES pH 7.5, 10% (w/v) PEG 8000, 20% (v/v) ethylene glycol, 0.03 M sodium fluoride, 0.03 M sodium bromide, 0.03 M sodium iodide, 0.03 M sodium bromide and sealed over […] well solution. AF647 labelling buffer: Tris-HCl (pH 7.2, 25 mM), NaCl (150 mM), and tris(2-carboxyethyl)phosphine hydrochloride (TCEP, 2 mM).)
(DNA only: Buffer+DMSO. DMSO only: Enzyme+DMSO. Drug: Enzyme+Drug, 25° C., 10 min+DNA, reaction at 25° C., 15 min.)
Gel images were scanned using a Typhoon FLA 9500 scanner (GE Healthcare) and densitometric analyses were performed using the ImageQuant software (GE Healthcare). The IC50 of TDP1 inhibitors was calculated by comparing the percentage of cleavage product (5′Cy5-[…]-p-3′) to DMSO control.

[2] = target: T1, TDP1; test: Degradation assay (western blotting) of TDP1 in HCT116 and HEK293 cells; type: cell-based; settings: list in description
Experimental: The degradation effect of the TDP1 inhibitors on TDP1 in human colon cancer cell line HCT116 and embryonic kidney cell line HEK293 were studied. Cells were first seeded in a 6-well plate until 60-80% confluency and then incubated with a serial dilution of TDP1 inhibitors at the range of 25-200 μM for 24-72 h at 37° C. Drug treated cells were collected and washed twice by DPBS followed by lysing in 1×RIPA buffer (50 mM Tris HCl, pH 7.4, 150 mM NaCl, 1 mM EDTA, 1 mM DTT, 0.1% sodium deoxycholate, 0.1% SDS, and 1% TritonX-100) supplemented with 1× protease inhibitor cocktail (Thermo). Samples were then sonicated at 30% for 10 s and centrifuged for 15 min at 15000 rpm at 4 Celsius. Supernatant were collected and the concentration of total protein were measured by BCA Protein Assay Kit according to its protocols. Four micrograms of total protein for each sample were loaded and TDP1 level were conducted by western blotting.

| Substance | IC50 [1] | FC (fold change) [1] | TDP1 degrading activity [2] |
| --- | --- | --- | --- |
| 4-((2-(4-(2-((4-(5-((λ^2-Azaneylidene)-λ^3-methyl)pyridin-2-yl)phenyl)methoxy)ethyl)phenyl)imidazo[1,2-a]pyridin-3-yl)amino)benzoic acid [XZ727] | 25.1 ± 1.25 µM | 3 | – |
| 4-((2-(4-(2-((4-(5-((λ^2-Azaneylidene)-λ^3-methyl)pyridin-2-yl)phenyl)methoxy)ethyl)phenyl)-7-phenylimidazo[1,2-a]pyridin-3-yl)amino)benzoic acid [XZ726] | 2.75 ± 0.25 µM | >36 | exhibit TDP1 degrading activity |
